In the assay the test system is IL-2 production from Jurkat cells. The assay can be described thus: cells. Particulars: Homo sapiens, read-out: IL-2 production inhibition IC50 value.

Consider `Cc1nnsc1C(=O)Nc1ccc(-n2nc(C(F)(F)F)cc2C(F)(F)F)cc1` [A], for which the IC50 is no more than 1 µM.

With `CCOC(=O)c1cnn(-c2ccc(NC(=O)C(Cl)=C(Cl)Cl)cc2)c1C(F)(F)F` [D], the IC50 was no more than 1 µM.

Values taken from patent US7285554B2, “Pyrazole derivative” (Astellas Pharma Inc., priority 1997, dated 2007).
